2 molecules from patent US5773423A (priority 1994, dated 1998) can be followed below.

By UniProt entry, the sequences of proteins in these tests, tags left out.
UniProt P28647, whole entry: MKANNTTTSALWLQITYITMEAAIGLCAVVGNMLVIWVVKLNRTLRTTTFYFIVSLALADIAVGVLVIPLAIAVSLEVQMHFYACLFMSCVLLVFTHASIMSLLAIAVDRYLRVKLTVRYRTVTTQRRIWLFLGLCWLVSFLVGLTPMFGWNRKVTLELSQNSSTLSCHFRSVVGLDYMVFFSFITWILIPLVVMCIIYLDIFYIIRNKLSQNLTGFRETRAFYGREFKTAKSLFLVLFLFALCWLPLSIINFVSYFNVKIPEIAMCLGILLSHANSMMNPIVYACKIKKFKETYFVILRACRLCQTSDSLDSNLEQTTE
UniProt P25099, whole entry: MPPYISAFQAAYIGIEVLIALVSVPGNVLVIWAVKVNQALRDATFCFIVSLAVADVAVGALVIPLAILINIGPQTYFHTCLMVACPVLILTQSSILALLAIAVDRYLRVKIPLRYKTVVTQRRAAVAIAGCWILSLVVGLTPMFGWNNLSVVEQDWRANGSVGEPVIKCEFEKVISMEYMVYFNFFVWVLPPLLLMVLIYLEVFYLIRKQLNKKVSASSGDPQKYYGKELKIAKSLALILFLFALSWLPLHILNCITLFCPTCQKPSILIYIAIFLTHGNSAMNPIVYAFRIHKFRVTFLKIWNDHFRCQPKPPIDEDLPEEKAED
UniProt P30543, whole entry: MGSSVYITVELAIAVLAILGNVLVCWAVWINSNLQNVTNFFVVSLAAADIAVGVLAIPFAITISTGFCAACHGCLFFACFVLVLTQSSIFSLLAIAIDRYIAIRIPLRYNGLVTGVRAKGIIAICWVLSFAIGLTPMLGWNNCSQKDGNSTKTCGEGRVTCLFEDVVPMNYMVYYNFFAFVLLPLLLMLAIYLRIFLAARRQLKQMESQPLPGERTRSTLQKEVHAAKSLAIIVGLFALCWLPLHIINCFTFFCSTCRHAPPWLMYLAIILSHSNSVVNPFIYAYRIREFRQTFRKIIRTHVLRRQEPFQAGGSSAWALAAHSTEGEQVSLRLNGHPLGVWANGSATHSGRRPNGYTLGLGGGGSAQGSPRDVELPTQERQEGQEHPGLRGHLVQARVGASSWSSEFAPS

The target of one experiment is T1, rat A3 receptors (Rattus norvegicus, UniProt P28647).
T1 construct: expressed in transfected cells; host or cells: CHO cells, transfected (the IC50); RBL-2H3 rat mast cells (endogenous) also named
The experiment in a line: Irreversible inhibition of radioligand binding at rat A3 receptors after preincubation. Conditions: CHO cells or RBL-2H3 mast cells.

The target in experiment [1] is T2, A1 receptors from rat brain membranes (Rattus norvegicus, UniProt P25099).
T2 construct: Rat cerebral cortical and striatal membranes were prepared; from tissue; host or cells: rat brain (cerebral cortical) membranes
In kind it is binding. Conditions: Table 2, [3H]PIA.

The target of experiment [2] is A2 receptors from rat striatal membranes (Rattus norvegicus, UniProt P30543).

For the molecule `Cn1c(=O)c2[nH]cnc2n(C)c1=O` [Compound 103, 1,3-dimethylxanthine, reference compound], the “irreversible inhibition of A3 binding (in words)” value at rat A3 receptors is given as “insensitive to theophylline (1 mM)”.

For the molecule `CNC(=O)[C@H]1O[C@@H](n2cnc3c(NCc4cccc(I)c4)nc(Cl)nc32)[C@H](O)[C@@H]1O` [Example 44, 2-chloro-N^6-(3-iodobenzyl)-9-[5-(methylamido)-β-D-ribofuranosyl]-adenine], the Ki was determined as 820 ± 570 nM in experiment [1] and 470 ± 365 nM in experiment [2].

The Ki is a measure of affinity in units of concentration, obtained from inhibition or displacement. A low value points to higher affinity.
